This assay concerns the target Vasopressin V2 receptor (Rattus norvegicus, UniProt Q00788). As to the kind of experiment: Displacement of [3H]AVP from vasopressin V2 receptor in rat kidney membranes. In kind it is cell membranes, Membrane. For orientation: In a radioligand displacement assay an active substance lowers the binding of a labelled ligand.

By UniProt entry, the sequences of proteins in these tests, tags left out.
UniProt Q00788, whole entry: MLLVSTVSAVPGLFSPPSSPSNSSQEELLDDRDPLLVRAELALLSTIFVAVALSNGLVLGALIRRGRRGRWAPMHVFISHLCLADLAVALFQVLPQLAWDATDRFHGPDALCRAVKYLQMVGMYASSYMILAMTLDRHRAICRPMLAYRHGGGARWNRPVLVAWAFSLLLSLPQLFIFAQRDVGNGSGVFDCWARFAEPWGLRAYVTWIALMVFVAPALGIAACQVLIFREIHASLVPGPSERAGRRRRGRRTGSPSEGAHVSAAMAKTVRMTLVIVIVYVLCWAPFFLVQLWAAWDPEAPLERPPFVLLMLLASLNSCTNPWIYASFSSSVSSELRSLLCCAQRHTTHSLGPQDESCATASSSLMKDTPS

Ki data for one compound are collected here from ChEMBL document CHEMBL1141418 (J Med Chem, 2007).

One may read the Ki as a measure of affinity in units of concentration, obtained from inhibition or displacement.

Take `NC(=O)CC[C@@H]1NC(=O)[C@H](Cc2ccccc2)NC(=O)[C@H](Cc2ccc(O)cc2)NC(=O)[C@@H](N)CSSC[C@@H](C(=O)N2CCC[C@H]2C(=O)N[C@@H](CCCN=C(N)N)C(=O)NCC(N)=O)NC(=O)[C@H](CC(N)=O)NC1=O` [VASOPRESSIN]: the Ki is 0.45 nM (antagonist).
